According to patent US5560935A, “Physiologically active substances extracted from activated tissues” (Nippon Zoki Pharmaceutical Co., Ltd., priority 1993, dated 1996):

Test system: plasma kallikrein
Experiment: Inhibition of the production of plasma kallikrein (kaolin-activated plasma, synthetic substrate)
Format: biochemical
Conditions: normal human plasma, kaolin activation, substrate D-Pro-Phe-Arg-p-nitroaniline
Description: The inhibitory action of the physiologically-active substance against the production of plasma kallikrein was measured according to a method described in Kiso to Rinsho, vol. 20, no. 17, pages 399-405 (1986).
Thus, a suspension of kaolin was added to normal human plasma diluted with a physiologically saline solution. A lima bean trypsin inhibitor was added thereto after a certain period to stop the kallikrein procluction reaction. Then the resulting kallikrein was determined by using a synthetic substrate (D-Pro-Phe-Arg-p-nitroaniline). The test substance was placed in the above system whereby the inhibitory action of the test substance against the production of kallikrein was determined.
In Table 1 the potency of the activity is given in terms of the concentration (IC50) at which the production of the plasma kallikrein was inhibited to an extent of 50%: […]

Compound: COc1ccc2c(c1)c(CC(=O)O)c(C)n2C(=O)c1ccc(Cl)cc1 [Indomethacin]
- IC50, concentration at which the production of the plasma kallikrein was inhibited to an extent of 50%: 370 micrograms/ml
